Results as given in US20050209441A1, “Process for promoting proper folding of human serum albumin using a human serum albumin ligand” (priority 2004, published 2005).

The chains behind the UniProt entries cited, without tags or fusion partners. Residues count along the entry.
UniProt P02768, 25-609: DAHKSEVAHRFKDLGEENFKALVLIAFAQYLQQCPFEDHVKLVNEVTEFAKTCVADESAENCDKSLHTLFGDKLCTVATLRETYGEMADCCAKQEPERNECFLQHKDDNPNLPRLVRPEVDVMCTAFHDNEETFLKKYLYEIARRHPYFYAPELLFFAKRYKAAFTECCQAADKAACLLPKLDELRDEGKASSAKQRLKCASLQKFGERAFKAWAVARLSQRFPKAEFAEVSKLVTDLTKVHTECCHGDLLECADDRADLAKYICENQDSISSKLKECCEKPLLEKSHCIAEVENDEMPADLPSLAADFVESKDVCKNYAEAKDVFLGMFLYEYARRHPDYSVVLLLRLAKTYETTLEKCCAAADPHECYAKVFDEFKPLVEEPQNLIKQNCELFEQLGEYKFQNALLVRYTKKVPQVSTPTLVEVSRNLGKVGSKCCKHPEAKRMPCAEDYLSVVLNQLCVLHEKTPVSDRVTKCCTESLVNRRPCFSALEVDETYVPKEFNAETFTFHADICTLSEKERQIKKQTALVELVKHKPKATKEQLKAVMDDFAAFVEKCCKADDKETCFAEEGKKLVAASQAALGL

Target: human serum albumin (HSA) (Homo sapiens, UniProt P02768)
Test: HSA refolding with ligand assistance (ED50 for refolding)

For 1-Propanol [1-Propanol (C3)], the “Optimal Concentration (refolding ligand)” value was greater than 1 M.
